Molecules are shown by their SMILES.

Amino acid sequences for entries named in this document (tags omitted).
UniProt P61073, whole entry: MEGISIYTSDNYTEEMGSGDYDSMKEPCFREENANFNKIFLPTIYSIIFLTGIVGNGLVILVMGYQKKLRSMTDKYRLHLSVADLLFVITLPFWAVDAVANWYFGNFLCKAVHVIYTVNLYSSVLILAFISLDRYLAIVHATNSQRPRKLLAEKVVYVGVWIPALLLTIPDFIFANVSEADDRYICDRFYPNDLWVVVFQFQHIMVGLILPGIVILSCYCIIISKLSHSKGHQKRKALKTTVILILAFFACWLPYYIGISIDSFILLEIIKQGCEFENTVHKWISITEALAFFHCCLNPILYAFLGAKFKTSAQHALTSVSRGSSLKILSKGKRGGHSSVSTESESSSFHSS
UniProt P51681, whole entry: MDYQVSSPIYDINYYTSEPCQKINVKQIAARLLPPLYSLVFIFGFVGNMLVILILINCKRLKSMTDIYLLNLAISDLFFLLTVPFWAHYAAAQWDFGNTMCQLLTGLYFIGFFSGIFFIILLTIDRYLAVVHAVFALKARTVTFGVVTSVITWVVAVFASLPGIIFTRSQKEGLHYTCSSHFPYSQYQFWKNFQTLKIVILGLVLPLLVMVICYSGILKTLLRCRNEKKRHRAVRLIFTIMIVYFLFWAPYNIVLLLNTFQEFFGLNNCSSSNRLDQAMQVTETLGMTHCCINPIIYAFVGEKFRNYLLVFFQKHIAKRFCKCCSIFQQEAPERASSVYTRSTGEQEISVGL

These results are taken from article PMC9920567, “Discovery of Bis-Imidazoline Derivatives as New CXCR4 Ligands” (Molecules, 2023).

The target in test [1] is T1, CXCR4 (Homo sapiens, UniProt P61073). The experiment in a line: anti-CXCR4 mAb 12G5 binding (saturation and competition) to A3.01 cells, flow cytometry. As to conditions: mAb 12G5 as tracer.
Test [2] has as its target T1, CXCR4. The experiment in a line: Inhibition of CXCL12-induced chemotaxis (transwell). The format is cell-based. Particulars: read-out: inhibitory efficacy on chemotaxis induced by 10 nM CXCL12; A3.01R5 cells, 10 µM compound in upper and lower chambers. How it is done:
(§1) We next investigated whether the bis-imidazoline compounds act as CXCR4 agonists or antagonists.
(§2) Cells (1.5 × 10^5) in prewarmed RPMI-1640 medium supplemented with 20 mM HEPES and 1% human serum AB were added to the top chambers of HTS-Transwell-96 Well Permeable Supports with polycarbonate membrane of 5 μm pore size (Corning, New York, USA). […] Cells were allowed to migrate for 5 h at 37 °C in humidified air with 5% CO2. The number of cells migrating across the polycarbonate membrane was then assessed by flow cytometry with a FACS CantoII (BD Biosciences).
Figure 2 Bis-imidazoline compounds behave as specific CXCR4 antagonists. […] Results (means ± SEM of technical duplicates) were normalized for nonspecific binding (0%) and specific binding in the absence of competitors (B0, 100%) and were fitted to a one-site competitive binding model. A representative experiment out of five independent experiments is shown. […] Results represent the number of cells that migrated from the upper to the lower chamber of a transwell system. The number of cells that migrated in response to bis-imidazolines was similar to spontaneous migration. The number of input cells was 1.5 × 10^5. A representative experiment out of four is shown. […] Means ± SD of three experiments performed in duplicate are shown. The black dots represent the different replicates. […] Results represent the proportion of viable cells among all the cells. Cells were incubated ON at 37 °C in the presence or absence of 10 μM of the indicated molecules. A representative experiment out of two is shown. […] Experiments were performed as in (D) in the presence of 3 nM of the CCR5 agonist PSC-CCL5 placed in the lower chamber.

The next test has as its target CCR5 (Homo sapiens, UniProt P51681). The experiment in a line: Inhibition of PSC-CCL5-induced, CCR5-dependent chemotaxis of A3.01R5 cells. Type of test: cell-based. Particulars: 3 nM PSC-CCL5, 10 µM compound. The method, then:
as §1, §2
Figure 2 Bis-imidazoline compounds behave as specific CXCR4 antagonists. […] Results (means ± SEM of technical duplicates) were normalized for nonspecific binding (0%) and specific binding in the absence of competitors (B0, 100%) and were fitted to a one-site competitive binding model. A representative experiment out of five independent experiments is shown. […] Results represent the number of cells that migrated from the upper to the lower chamber of a transwell system. The number of cells that migrated in response to bis-imidazolines was similar to spontaneous migration. The number of input cells was 1.5 × 10^5. A representative experiment out of four is shown. […] Means ± SD of three experiments performed in duplicate are shown. The black dots represent the different replicates. […]

As for `C(CCCCNC1=NCCN1)CCCNC1=NCCN1` [mr20347], the IC50 – broadly, the concentration at which inhibition is half-maximal – at CXCR4 [1] is 2.64 ± 0.34 µM. Moreover, the inhibition at 10 µM at CXCR4 [2] turned out to be 92%. In turn, `C(CCCCNC1=NCCN1)CCCCNC1=NCCN1` [mr20348] displayed an IC50 on CXCR4 [1] of 1.88 ± 0.18 µM. Turning to `C(CCCCCNC1=NCCN1)CCCCNC1=NCCN1` [mr20349], the IC50 at CXCR4 [1] came out at 1.28 ± 0.8 µM. In addition, the inhibition at 10 µM at CXCR4 [2] was determined as 53%.

At CXCR4 [1], `C(CCCCCCNC1=NCCN1)CCCCCNC1=NCCN1` [mr20350] displayed a 50% inhibitory concentration (IC50) of 1.8 ± 1.03 µM. Further, at CXCR4 [2], the inhibition at 10 µM was 75%. For the same compound, on CCR5, the “decrease of migration induced by CCR5 agonist PSC-RANTES/CCL5” value is “only slightly”. At CXCR4 [1], `C(CCCCCNC1=NCCN1)CCCCCNC1=NCCN1` [mr34200] gave an IC50 of 4.23 ± 1.6 µM.
